This is an account of results in ChEMBL document CHEMBL1134384, “Development of new carboxylic acid-based MMP inhibitors derived from functionalized propargylglycines” (J Med Chem, 2001).

The target in this experiment is Collagenase 3 (Homo sapiens, UniProt P45452). Kind of experiment: Inhibition of human matrix metalloprotease-13 at pH 7.4.

The IC50 is the concentration at which inhibition is half-maximal. A low value points to greater potency. `O=C(O)C(CC#Cc1ccccc1)NS(=O)(=O)c1ccc(/N=N/c2ccccc2)cc1` (stereo unspecified) showed an IC50 of 498 nM.
